Experimental data published in patent US12195463B2 (priority 2018, dated 2025).

Target: Mu opiate receptor (Homo sapiens, UniProt P35372)
Assay: Receptor binding, Mu opiate receptor
Details: qualitative statement

O=C1CN2c3c(cccc3[C@H]3CN(CCCOc4ccc(F)cc4)CC[C@H]32)N1 [Example 1, (6bS,10aR)-8-(3-(4-fluorophenoxy)propyl)-6b,7,8,9,10,10a-hexahydro-1H-pyrido[3′,4′:4,5]pyrrolo[1,2,3-de]quinoxalin-2(3H)-one]
mu receptor activity, in words: only weak mu receptor activity
